Experimental data: patent US20260076602A1, “SYSTEM AND METHOD FOR RAPID ASSESSMENT OF RENAL FUNCTION” (Mayo Foundation for Medical Education and Research, priority 2018, published 2026)

Conditions: mouse, in vivo, iv

Substance: Rhod-Dextran
- fluorescence of tracer agent after injection (clearance by healthy renal function): substantially not cleared
